Experimental data taken from patent US20130115216A1.

Biological target: HLA-B35 (human)
Assay: assembly assay, HLA-B35 recovery from T2-B35 cell lysate

C24 (EBNA3A458-466) (peptide)
C50: 0.8 µM
